Laboratory results published in ChEMBL document CHEMBL3862033 (J Med Chem, 2016).

By UniProt entry, the sequences of proteins in these tests, tags left out. Where a name states a change or a piece, a line headed by the entry shows the natural chain unless it says otherwise.
UniProt P0DMS8, whole entry: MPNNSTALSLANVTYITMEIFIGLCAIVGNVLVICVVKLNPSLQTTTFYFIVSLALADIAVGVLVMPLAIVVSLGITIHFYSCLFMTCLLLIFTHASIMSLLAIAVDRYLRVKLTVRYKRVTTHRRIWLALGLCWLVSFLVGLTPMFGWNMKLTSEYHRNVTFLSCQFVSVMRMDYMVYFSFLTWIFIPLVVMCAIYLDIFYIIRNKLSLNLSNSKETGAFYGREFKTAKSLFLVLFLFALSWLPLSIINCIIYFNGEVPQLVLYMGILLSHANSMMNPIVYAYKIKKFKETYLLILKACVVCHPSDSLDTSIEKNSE
UniProt P28222, whole entry: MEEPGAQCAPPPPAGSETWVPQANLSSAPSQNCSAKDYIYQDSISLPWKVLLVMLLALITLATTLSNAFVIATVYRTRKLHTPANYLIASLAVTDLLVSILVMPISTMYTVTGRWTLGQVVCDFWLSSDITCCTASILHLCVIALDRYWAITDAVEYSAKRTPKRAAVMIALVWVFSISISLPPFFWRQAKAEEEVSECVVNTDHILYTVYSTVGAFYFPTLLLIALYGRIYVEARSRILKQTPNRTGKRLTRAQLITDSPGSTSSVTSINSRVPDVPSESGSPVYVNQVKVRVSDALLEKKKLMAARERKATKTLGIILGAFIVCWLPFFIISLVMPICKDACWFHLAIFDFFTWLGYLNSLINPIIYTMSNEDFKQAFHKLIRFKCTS
UniProt P34969, whole entry: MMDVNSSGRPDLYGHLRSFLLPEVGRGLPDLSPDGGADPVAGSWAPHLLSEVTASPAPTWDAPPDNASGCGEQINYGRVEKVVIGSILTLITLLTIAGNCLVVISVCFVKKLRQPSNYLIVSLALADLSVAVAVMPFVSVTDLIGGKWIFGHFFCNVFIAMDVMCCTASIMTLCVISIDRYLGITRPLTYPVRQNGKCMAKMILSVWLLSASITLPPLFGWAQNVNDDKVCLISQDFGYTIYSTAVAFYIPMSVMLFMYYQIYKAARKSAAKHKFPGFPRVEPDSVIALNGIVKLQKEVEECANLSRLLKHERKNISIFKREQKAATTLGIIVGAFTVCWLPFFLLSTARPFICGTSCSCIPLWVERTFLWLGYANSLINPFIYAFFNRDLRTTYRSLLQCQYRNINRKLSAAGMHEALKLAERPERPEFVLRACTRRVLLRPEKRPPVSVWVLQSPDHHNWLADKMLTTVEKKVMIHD
UniProt P28335: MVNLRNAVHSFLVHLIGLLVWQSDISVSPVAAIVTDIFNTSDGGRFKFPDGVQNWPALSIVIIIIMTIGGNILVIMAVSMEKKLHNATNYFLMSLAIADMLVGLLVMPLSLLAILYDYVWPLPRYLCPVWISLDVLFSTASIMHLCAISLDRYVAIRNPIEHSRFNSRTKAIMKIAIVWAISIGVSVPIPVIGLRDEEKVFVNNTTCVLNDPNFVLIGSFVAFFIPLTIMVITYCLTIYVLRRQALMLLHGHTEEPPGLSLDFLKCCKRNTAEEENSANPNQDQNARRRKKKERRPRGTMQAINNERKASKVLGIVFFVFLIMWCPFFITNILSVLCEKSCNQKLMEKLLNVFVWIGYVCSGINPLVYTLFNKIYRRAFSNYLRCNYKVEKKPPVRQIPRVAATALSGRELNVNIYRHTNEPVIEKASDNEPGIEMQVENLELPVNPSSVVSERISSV
UniProt P47898, whole entry: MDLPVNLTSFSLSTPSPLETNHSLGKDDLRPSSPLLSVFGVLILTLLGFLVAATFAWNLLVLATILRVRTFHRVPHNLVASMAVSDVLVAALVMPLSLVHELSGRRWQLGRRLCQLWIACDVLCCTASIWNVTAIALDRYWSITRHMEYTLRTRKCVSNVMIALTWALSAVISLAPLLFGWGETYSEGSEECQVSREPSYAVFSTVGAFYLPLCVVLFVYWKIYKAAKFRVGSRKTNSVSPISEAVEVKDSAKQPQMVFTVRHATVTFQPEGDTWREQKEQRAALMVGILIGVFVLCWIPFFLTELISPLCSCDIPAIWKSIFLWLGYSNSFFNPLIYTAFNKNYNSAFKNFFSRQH
UniProt Q13639: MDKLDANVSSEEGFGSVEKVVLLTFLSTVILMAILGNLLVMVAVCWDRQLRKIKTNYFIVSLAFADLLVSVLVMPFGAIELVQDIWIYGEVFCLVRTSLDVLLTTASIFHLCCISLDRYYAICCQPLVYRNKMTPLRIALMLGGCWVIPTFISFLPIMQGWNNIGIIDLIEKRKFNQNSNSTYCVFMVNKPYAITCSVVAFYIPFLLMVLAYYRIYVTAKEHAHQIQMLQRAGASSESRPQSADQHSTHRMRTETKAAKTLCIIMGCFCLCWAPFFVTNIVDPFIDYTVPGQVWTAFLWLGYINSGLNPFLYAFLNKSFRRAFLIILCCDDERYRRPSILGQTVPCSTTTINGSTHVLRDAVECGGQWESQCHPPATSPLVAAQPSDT
UniProt P50406, whole entry: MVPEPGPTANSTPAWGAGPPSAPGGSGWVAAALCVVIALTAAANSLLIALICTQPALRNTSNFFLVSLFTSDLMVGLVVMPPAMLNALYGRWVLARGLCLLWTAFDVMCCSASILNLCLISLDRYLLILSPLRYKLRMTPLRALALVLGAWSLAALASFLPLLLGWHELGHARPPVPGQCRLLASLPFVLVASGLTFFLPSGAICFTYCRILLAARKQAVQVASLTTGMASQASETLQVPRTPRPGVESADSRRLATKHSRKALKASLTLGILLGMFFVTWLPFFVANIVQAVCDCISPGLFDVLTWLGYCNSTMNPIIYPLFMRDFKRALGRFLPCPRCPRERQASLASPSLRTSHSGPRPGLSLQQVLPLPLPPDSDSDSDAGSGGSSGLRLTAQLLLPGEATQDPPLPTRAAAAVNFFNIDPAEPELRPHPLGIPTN
UniProt P41595, whole entry: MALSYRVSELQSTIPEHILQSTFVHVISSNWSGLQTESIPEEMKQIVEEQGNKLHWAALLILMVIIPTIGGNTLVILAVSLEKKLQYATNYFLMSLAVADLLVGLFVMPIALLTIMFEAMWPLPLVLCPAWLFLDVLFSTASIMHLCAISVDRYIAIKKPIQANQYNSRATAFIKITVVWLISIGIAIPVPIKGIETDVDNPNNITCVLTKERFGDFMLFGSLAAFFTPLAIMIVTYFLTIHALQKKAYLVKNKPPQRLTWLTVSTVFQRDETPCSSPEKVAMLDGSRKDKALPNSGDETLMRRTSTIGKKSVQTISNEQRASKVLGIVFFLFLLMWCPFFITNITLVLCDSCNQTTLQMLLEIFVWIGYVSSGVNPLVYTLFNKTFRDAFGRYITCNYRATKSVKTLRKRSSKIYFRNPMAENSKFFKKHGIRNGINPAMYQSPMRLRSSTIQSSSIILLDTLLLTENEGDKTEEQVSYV
UniProt P28566: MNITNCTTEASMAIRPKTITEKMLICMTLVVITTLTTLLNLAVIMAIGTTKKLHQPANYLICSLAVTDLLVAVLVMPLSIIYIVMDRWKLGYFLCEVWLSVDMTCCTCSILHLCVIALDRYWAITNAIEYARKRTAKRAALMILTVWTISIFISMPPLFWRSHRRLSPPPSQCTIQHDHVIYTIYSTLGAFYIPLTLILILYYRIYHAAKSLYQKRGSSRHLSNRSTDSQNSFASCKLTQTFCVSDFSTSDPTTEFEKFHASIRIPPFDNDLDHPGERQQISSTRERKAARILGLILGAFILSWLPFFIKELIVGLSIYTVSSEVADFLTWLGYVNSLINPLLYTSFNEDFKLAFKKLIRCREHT
UniProt P28221: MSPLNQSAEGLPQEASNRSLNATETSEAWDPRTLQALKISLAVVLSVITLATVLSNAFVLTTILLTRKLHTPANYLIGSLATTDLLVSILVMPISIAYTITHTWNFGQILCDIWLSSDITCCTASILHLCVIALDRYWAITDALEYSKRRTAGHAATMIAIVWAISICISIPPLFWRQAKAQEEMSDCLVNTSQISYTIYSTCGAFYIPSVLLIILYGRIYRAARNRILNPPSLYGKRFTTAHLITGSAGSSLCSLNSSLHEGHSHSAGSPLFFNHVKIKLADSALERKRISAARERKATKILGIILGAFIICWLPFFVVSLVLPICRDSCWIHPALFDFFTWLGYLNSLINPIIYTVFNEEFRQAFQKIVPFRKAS
UniProt P46098, whole entry: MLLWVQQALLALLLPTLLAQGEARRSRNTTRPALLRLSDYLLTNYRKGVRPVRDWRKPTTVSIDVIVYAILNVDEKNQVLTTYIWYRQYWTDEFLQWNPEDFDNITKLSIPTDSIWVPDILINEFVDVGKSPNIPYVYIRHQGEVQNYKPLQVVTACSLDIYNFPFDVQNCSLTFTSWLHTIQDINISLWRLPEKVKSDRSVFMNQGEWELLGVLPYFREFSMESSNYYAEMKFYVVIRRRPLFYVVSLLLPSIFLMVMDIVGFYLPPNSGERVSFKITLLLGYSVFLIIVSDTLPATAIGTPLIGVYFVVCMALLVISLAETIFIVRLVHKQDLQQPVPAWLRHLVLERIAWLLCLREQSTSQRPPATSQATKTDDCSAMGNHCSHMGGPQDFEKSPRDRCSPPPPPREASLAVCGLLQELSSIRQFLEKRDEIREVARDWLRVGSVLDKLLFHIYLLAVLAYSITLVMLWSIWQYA
UniProt P08908, whole entry: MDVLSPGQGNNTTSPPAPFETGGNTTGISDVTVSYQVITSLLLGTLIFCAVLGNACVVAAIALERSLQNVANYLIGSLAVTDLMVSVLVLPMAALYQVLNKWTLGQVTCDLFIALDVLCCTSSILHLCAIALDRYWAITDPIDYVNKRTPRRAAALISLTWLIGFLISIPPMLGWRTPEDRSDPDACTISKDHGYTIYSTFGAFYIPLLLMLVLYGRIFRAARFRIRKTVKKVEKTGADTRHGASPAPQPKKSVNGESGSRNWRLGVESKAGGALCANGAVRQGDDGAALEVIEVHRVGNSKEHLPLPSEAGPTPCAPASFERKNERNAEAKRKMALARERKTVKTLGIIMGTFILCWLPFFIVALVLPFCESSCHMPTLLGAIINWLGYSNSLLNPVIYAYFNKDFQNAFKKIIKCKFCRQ
UniProt P30536, whole entry: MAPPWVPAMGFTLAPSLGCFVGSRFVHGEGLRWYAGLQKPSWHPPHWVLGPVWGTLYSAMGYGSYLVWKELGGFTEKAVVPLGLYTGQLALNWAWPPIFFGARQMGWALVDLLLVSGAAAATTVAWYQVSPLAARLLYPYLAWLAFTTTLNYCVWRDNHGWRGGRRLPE

Assays:
Adenosine receptor A3 = Adenosine receptor A3 (Homo sapiens, UniProt P0DMS8); assay: Displacement of [125l]N 6-(4-amino-3-iodobenzyl)adenosine-5'-N-methyluronamide from recombinant human A3AR expressed in CHO cell membranes after 60 mins by gamma counting method
[1] = biological target: 5-hydroxytryptamine receptor 1B (Homo sapiens) (UniProt P28222); assay: Displacement of [3H]5-CT from human 5-HT1BR expressed in HEK cell membranes at 10 uM incubated for 90 mins under dark condition by microbeta scintillation counting method relative to control; conditions: HEK293
[2] = biological target: 5-hydroxytryptamine receptor 7 (Homo sapiens) (UniProt P34969); assay: Displacement of [3H]LSD from human 5-HT7A receptor expressed in HEK cell membranes at 10 uM incubated for 90 mins under dark condition by microbeta scintillation counting method relative to control; conditions: HEK293
[3] = biological target: 5-hydroxytryptamine receptor 2C (Homo sapiens, UniProt P28335); assay: Displacement of [3H]mesulergine from human 5-HT2CR expressed in Flp-In HEK cell membranes at 10 uM incubated for 90 mins under dark condition by microbeta scintillation counting method relative to control; conditions: HEK293
Adenosine receptor A2a = Adenosine receptor A2a (Homo sapiens, UniProt P29274); assay: Displacement of [3 H]2-[p-(2-carboxyethyl)phenyl-ethylamino]-5'-N-ethylcarboxamidoadenosine from recombinant human adenosine receptor A2A expressed in HEK293 cell membranes at 10 uM after 60 mins by liquid scintillation counting method relative to control
[4] = biological target: 5-hydroxytryptamine receptor 5A (Homo sapiens) (UniProt P47898); assay: Displacement of [3H]LSD from human 5-HT5A receptor expressed in Flp-In-CHO cell membranes incubated for 90 mins under dark condition by microbeta scintillation counting method relative to control; set-up: concentration or dose not given beside the values
[5] = biological target: 5-hydroxytryptamine receptor 4 (Homo sapiens) (UniProt Q13639); assay: Displacement of [3H]GR113808 from human 5-HT4 receptor at 10 uM incubated for 90 mins under dark condition by microbeta scintillation counting method relative to control
[6] = biological target: 5-hydroxytryptamine receptor 6 (Homo sapiens) (UniProt P50406); assay: Displacement of [3H]LSD from human 5-HT6 receptor expressed in HEK cell membranes at 10 uM incubated for 90 mins under dark condition by microbeta scintillation counting method relative to control; conditions: HEK293
[7] = biological target: 5-hydroxytryptamine receptor 2B (Homo sapiens, UniProt P41595); conditions: HEK293, at 10 µM
[8] = biological target: 5-hydroxytryptamine receptor 1E (Homo sapiens) (UniProt P28566); assay: Displacement of [3H]5-HT from human 5-HT1E receptor expressed in HEK cell membranes at 10 uM incubated for 90 mins under dark condition by microbeta scintillation counting method relative to control; conditions: HEK293
[9] = biological target: 5-hydroxytryptamine receptor 1D (Homo sapiens) (UniProt P28221); assay: Displacement of [3H]5-CT from human 5-HT1D receptor expressed in HEK-T cell membranes at 10 uM incubated for 90 mins under dark condition by microbeta scintillation counting method relative to control
[10] = biological target: 5-hydroxytryptamine receptor 3A (Homo sapiens, UniProt P46098); assay: Displacement of [3H]GR65630 from human 5-HT3 receptor expressed in HEK-T cell membranes at 10 uM incubated for 90 mins under dark condition by microbeta scintillation counting method relative to control
[11] = biological target: 5-hydroxytryptamine receptor 1A (Homo sapiens) (UniProt P08908); assay: Displacement of [3H]WAY100635 from human 5-HT1AR expressed in CHO cell membranes at 10 uM incubated for 90 mins under dark condition by microbeta scintillation counting method relative to control
Translocator protein = Translocator protein (Homo sapiens, UniProt P30536); assay: Inhibition of TSPO (unknown origin)

O[C@@H]1[C@H](O)[C@@H]2C[C@@H]2[C@H]1n1cnc2c(NCc3cccc(Cl)c3)nc(Cl)nc21
Ki (Adenosine receptor A3): 4.9 µM

O[C@@H]1[C@H](O)[C@@H]2C[C@@H]2[C@H]1n1cnc2c(NC(C3CC3)C3CC3)nc(Cl)nc21
inhibition [1]: < 50%
inhibition [2]: < 50%
inhibition [3]: > 50%
inhibition (Adenosine receptor A2a): > 50%
inhibition [4]: < 50%
inhibition [5]: < 50%
inhibition [6]: < 50%
inhibition [7]: > 50%
inhibition [8]: < 50%
inhibition [9]: < 50%
inhibition [10]: < 50%
inhibition [11]: < 50%

CCOC(=O)[C@@]12C[C@@H]1[C@@H](n1cnc3c(NC(C4CC4)C4CC4)nc(Cl)nc31)[C@H](O)[C@@H]2O
Ki (Translocator protein): 2.1 µM
